Protein sequences, listed by entry. Tags and fused reporters are not part of them.
UniProt P30559, whole entry V281M: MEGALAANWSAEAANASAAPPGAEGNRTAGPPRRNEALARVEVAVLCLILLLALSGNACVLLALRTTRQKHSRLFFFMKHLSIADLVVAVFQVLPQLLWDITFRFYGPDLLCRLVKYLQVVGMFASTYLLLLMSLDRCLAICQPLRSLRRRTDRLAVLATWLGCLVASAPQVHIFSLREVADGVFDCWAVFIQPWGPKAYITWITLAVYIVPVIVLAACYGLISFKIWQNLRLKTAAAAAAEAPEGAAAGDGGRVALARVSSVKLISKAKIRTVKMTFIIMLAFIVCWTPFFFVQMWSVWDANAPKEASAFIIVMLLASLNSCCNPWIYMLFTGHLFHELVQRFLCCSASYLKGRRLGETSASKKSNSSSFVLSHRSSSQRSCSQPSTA

In patent US20220395511A1, “COMPOSITIONS AND METHODS FOR INCREASING CELL SURFACE OXYTOCIN RECEPTOR (OXTR)” (Washington University, priority 2021, published 2022):

What was measured:
[1] = target: V281M OXTR-GFP (Homo sapiens, UniProt P30559, V281M); conditions: stably transfected HEK293; for colocalization of V281M OXTR-GFP with PDI (ER) and golgin-97 (Golgi): 10 μM, Pearson's r
[2] = system: OXTR; test: Cell surface OXTR in transfected HEK293T cells, OXTR form not stated; format: cell-based, human; conditions: WT or V281M not stated, 10 μM, 16 h
[3] = target: T1, V281M OXTR (Homo sapiens, UniProt P30559, V281M); test: Oxytocin-induced IP1 production in HEK293T cells transfected with V281M OXTR; format: cell-based; conditions: 10 μM, 16 h, vehicle-treated V281M was 80% of WT
T1 construct: expressed in transfected cells; host or cells: HEK293T (transient)

SMILES	cell surface localization of V281M OXTR-GFP ([1]; 10 μM overnight)	colocalization of V281M OXTR-GFP with PDI (ER) and golgin-97 (Golgi) [1]	effect on surface OXTR in transfected HEK293T cells [2]	maximal oxytocin-induced IP1 production compared with WT OXTR-expressing cells [3]
COc1ccc(S(=O)(=O)N2c3ccc(Cl)cc3[C@](O)(c3ccccc3Cl)[C@@H]2C(=O)N2CCC[C@H]2C(N)=O)cc1OC [SR49059, (2S)-1-[[(2R,3S)-5-Chloro-3-(2-chlorophenyl)-1-[(3,4-dimethoxyphenyl)sulfonyl]-2,3-dihydro-3-hydroxy-1H-indol-2-yl]carbonyl]-2-pyrrolidinecarboxamide]	improved	decreased	–	–
COc1cc(OC2CCN(C(C)=O)CC2)ccc1C(=O)N1CCC(N2C(=O)OCc3ccccc32)CC1 [L371,257, 1-[1-[4-(1-acetylpiperidin-4-yl)oxy-2-methoxybenzoyl]piperidin-4-yl]-4H-3,1-benzoxazin-2-one]	–	decreased	greatest effect of all the candidate compounds	abolished this difference
Cc1cc(C(=O)N2Cc3cnn(C)c3Nc3ccccc32)ccc1CNC(=O)N1CCN(Cc2cc(O)cc(O)c2)CC1 [WAY26746, 4-(3,5-Dihydroxybenzyl)-N-(2-methyl-4-[(1-methyl-4,10-dihydropyrazolo[3,4-b][1,5]benzodiazepin-5(1H)-yl)carbonyl]benzyl)piperazine-1-carboxamide]	–	–	decreased	–
